Assay results taken from US20080318905A1, “Prodrugs and methods of making and using the same” (priority 2006, published 2008).
Structures can show the parent of a compound that is named as a salt.

Sequences of proteins named here, by UniProt entry; tags and fusion partners are left off.
UniProt P35372, whole entry: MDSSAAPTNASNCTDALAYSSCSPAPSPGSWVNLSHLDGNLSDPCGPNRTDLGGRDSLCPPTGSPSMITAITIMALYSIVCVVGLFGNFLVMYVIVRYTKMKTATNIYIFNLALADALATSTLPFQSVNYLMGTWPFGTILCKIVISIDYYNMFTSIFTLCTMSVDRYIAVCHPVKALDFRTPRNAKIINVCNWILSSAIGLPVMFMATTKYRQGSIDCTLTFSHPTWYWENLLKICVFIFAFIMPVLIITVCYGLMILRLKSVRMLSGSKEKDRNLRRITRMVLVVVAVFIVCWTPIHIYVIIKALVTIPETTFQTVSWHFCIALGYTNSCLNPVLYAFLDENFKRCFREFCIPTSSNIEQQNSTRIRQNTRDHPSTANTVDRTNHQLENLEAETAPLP

Molecular target: human mu receptor (Homo sapiens, UniProt P35372)
Assay: Human mu receptor binding (IC50, Ki)

CN1CCC23CCCCC2C1Cc1ccc(O)cc13 (centres unmarked) [levorphanol tartrate, reference compound]
IC50: 520 pM

CN1CC[C@]23CCCC[C@H]2[C@H]1Cc1ccc(O)cc13 [levorphanol, Levorphanol, reference compound]
Ki: 220 pM
